Measured affinities in a library of Ab-14 heavy chain variants

All variants were tested on one target, the spike HR2 peptide PDVDLGDISGINAS (SARS-CoV-2).

Parent scFv Ab-14: VH joined to VL by the linker GGGGSGGGGSGGGGS. Changes lie in the heavy chain CDRs alone.
VH: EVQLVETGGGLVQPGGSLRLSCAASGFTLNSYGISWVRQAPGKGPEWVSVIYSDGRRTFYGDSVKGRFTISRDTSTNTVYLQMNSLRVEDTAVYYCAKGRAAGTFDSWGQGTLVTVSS
VL: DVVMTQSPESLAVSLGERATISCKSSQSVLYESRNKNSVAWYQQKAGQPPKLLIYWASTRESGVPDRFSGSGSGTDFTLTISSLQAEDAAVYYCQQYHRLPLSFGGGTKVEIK

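The starting antibody came from a phage panning campaign against this peptide. Designed CDR sequences, proposed from the first random library and measured here. Their group label is 14H_GP_HC (GP: Gaussian process model; HC: hill climbing; a sequence that several methods proposed may carry one label only). In AlphaSeq, yeast of one mating type display the scFv and yeast of the other type display the target. The frequency of each diploid, read from paired DNA barcodes, reflects how well the two displayed proteins bind. A regression on co-assayed BCL2-family reference pairs converts the normalised counts of each replicate to an apparent Kd. Mating was done six times.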

Each variant is given by its three heavy chain CDRs, as the data file delimits them; those of the parent are GFTLNSYGIS, VIYSDGRRTFYGDSVK, GRAAGTFDS. Numbers give log10(Kd / nM), so 0 is 1 nM and 3 is 1 µM. Smaller is tighter. The mean shown is taken over the replicates in which the pair was detected. "ND" means that the variant was in the library but no mating with the target was seen in that replicate; the authors take this as a sign of poor binding, and no number exists.

CDR-H1,CDR-H2,CDR-H3,"replicates, log10 nM","mean, log10 nM",control signals
GFELNQYGIS,VIYSDGRRTFYSDSVK,GRAAVTFDS,ND ND ND ND ND ND,ND,0/18
GFKLNEYGIS,VIYSDGRRTWYIDSVK,GRAAGTFDS,0.31 1.73 0.48 0.76 0.81 1.40,0.92,0/18
GFTLNEYGIS,VIYSDGRRTFYGDSVK,GRMAGTFFS,ND ND ND ND ND ND,ND,0/18
GFSLNEYGIS,VIYSDGRRTFYGDSVK,GRAAVTFDK,ND ND ND ND ND ND,ND,0/18
GFKLNSYGIS,VIYSDGRRTFYDDSVK,GRLAGTFDS,2.37 1.89 1.37 1.30 1.52 ND,1.69,0/18
GFDLNSFGIS,VIYSDGRRTFYLDSVK,GRLAGTFDS,1.22 1.51 2.13 1.93 2.05 2.20,1.84,0/18
GFPLNEYGIS,VIYADGRRTFYGDSVK,GQAAGTFDS,0.05 0.48 1.22 0.29 1.19 0.18,0.57,0/18
GFELNSYGIS,VIYSDGRRTFYSDSVK,GRSAGTFDS,ND 0.91 ND 0.54 ND 2.25,1.24,0/18
GFKLNSYGIS,VIYSDGRRTFYVDSVK,GQTAGTFDS,ND ND ND ND ND ND,ND,0/18
GFTLNEYGIS,VIYSDGRRTFYQDSVK,GRAAVTFDM,-0.21 -0.66 -0.75 0.05 -0.34 -0.44,-0.39,0/18
NFTLESYGIS,VIYADGRRTFYGDSVK,GRAAGTFDS,1.63 1.57 1.45 2.07 1.40 1.62,1.62,1/18 (2.92)
GFSLNEYGIS,VIYSDGRRTFYSDSVK,GRNAGTFDS,-0.04 -0.46 -0.66 -0.94 -0.45 -0.40,-0.49,1/18 (2.63)
GFQLNEYGIS,VIYSDGRRTFYIDHVK,GKAAGTFDS,ND 1.27 1.86 ND 1.04 ND,1.39,0/18
GFTLNEYGIS,VIYSDGRRTFYGQSVK,GRAAVTFDT,ND ND ND ND ND ND,ND,0/18
GKTLNEYGIS,VIYSDGRRTFYGDSVK,GRAAVTFDV,ND ND ND ND ND ND,ND,0/18
KFTLNEYGIS,VIYSDGRRTFYVDSVK,GRCAGTFDS,ND ND ND ND ND ND,ND,0/18
GFQLNEYGIS,VIYSDGRRTFYGDSVK,GRAAGTFDE,1.20 0.21 1.16 0.88 0.46 0.73,0.77,0/18
GFQLNSYGIS,VIYSDGRRTFYSDSVK,GMAAGTFDS,1.29 ND 0.60 0.46 1.26 ND,0.91,0/18
GFTLNEYGIS,VIYSDGRRTFYHDSVK,GRAAGMFDS,ND ND ND ND ND ND,ND,0/18
GFTLNEYGIS,VIYSDGRRTFYSDSVK,GQKAGTFDS,ND 0.85 0.20 0.97 0.41 0.96,0.68,0/18
GFTLNDYGIS,VIYSDGRRTMYIDSVK,GRTAGTFDS,0.34 0.45 0.55 0.40 0.37 0.37,0.41,1/18 (2.08)
GFELNSYGIS,VIYSDGRRTFYTDSVK,GMEAGTFDS,0.71 0.22 0.52 0.99 0.18 -0.24,0.40,1/18 (1.11)
GFTLEQYGIS,VIYADGRRTFYGDSVK,GRAAGTFDS,-0.32 -0.34 -0.40 -0.63 -0.39 -0.15,-0.37,0/18
GFTLDSYGIS,VIYSDGRRTFYGDSVK,GRAAGTFFQ,ND ND ND ND ND ND,ND,0/18
GFDLNSYGIS,VIYSDGRRTFYSDSVK,GVAGGTFDS,2.09 ND 3.15 ND 2.03 2.99,2.57,0/18
PFTLNSYGIS,VIYSDGRRTFYSDSVK,GEAAGTFDS,ND 1.41 1.33 1.98 2.09 2.20,1.80,2/18 (1.99)
GFTLNDYGIS,VIYSDGRRTLYIDSVK,GRAAGTFDS,ND ND ND ND ND ND,ND,0/18
GFDLNSYGIS,VIYSDGRRTFYVDSVK,GQLAGTFDS,0.31 1.40 2.77 0.47 0.81 0.76,1.09,1/18 (2.05)
GFWLNEYGIS,VIYSDGRRTFYHDSVK,GRAAGTFDF,ND 4.36 ND ND ND 2.38,3.37,0/18
GMTLNSYGIS,VIYADGRRTFYGDSVK,GRAAGTFKS,ND ND ND ND ND ND,ND,0/18
GFPLNSYGIS,VIYSDGRRTFYDDSVK,GQTAGTFDS,-0.07 -0.14 -0.19 0.08 0.05 -0.04,-0.05,0/18
GFKLNEYGIS,VIYSDGRRTFYIDSVK,GRAAGTFDS,1.79 0.40 0.95 0.92 0.52 1.10,0.95,1/18 (2.23)
GFTLNEYGIS,VIYSDGRRTFYGESVK,GRAAVTFDL,ND ND ND ND ND ND,ND,0/18
GFDLNSYGIS,VIYADGRRTFYGDSVK,GTAAGTFDS,ND ND ND ND ND ND,ND,0/18
GFHLNDYGIS,VIYSDGRRTFYHDSVK,GRLAGTFDS,0.57 ND ND 0.68 0.90 0.28,0.61,0/18
GFDLNSYGIS,VIYSDGRRTFYIDSVK,GRAAGTFDT,0.55 -0.22 0.24 -0.48 0.07 -0.19,0.00,0/18
GFSLNEYGIS,VIYSDGHRTFYSDSVK,GRAAGTFDS,-0.24 -0.24 -0.50 -0.52 -0.36 -0.20,-0.34,3/18 (2.85)
LFWLNEYGIS,VIYSDGRRTFYRDSVK,GRTAGTFDS,ND 2.25 2.99 2.38 ND ND,2.54,0/18
GFTLNSYGIS,VIYSDGRRTFYADSVK,GQAVGTFDS,ND ND ND ND ND ND,ND,1/18 (2.01)
GFDLNSYGIS,VIYSDGRRTFYGDSVK,GRAAWTFDD,ND ND ND 2.51 ND ND,2.51,0/18
GFTLNSYGIS,VIYSDGRRTFYDDSVK,GLMAGTFDS,ND ND ND ND ND ND,ND,0/18

From the list, the first 3 with no signal in any replicate:

CDR-H1,CDR-H2,CDR-H3,"replicates, log10 nM","mean, log10 nM",control signals
GFELNQYGIS,VIYSDGRRTFYSDSVK,GRAAVTFDS,ND ND ND ND ND ND,ND,0/18
GFTLNEYGIS,VIYSDGRRTFYGDSVK,GRMAGTFFS,ND ND ND ND ND ND,ND,0/18
GFSLNEYGIS,VIYSDGRRTFYGDSVK,GRAAVTFDK,ND ND ND ND ND ND,ND,0/18

As a blank, each scFv also met three strains without target: over all heavy chain designs, 1% of these pairings were detected, typically at 2.08 and seldom below 0.84. The control count says in how many pairings with the empty strains this scFv gave a signal, with their mean in brackets. Of ten entries with the parent sequence, four were seen in most replicates (averages 0.34 to 2.37), three in one and three in none, so single entries are noisy. In the paper, a design with two or fewer of six values counts as a poor binder. The range of this assay differs from that of the first round, and the authors advise against merging the two.

Reference: Li et al. 2023, doi:10.1038/s41467-023-39022-2. File: FLAb, binding data.